Patent US12486228B2, “N-substituted indoles and use as allosteric modulators of cannabinoid receptors” (priority 2018, dated 2025)

The chains behind the UniProt entries cited, without tags or fusion partners.
UniProt P34972, whole entry, species assumed: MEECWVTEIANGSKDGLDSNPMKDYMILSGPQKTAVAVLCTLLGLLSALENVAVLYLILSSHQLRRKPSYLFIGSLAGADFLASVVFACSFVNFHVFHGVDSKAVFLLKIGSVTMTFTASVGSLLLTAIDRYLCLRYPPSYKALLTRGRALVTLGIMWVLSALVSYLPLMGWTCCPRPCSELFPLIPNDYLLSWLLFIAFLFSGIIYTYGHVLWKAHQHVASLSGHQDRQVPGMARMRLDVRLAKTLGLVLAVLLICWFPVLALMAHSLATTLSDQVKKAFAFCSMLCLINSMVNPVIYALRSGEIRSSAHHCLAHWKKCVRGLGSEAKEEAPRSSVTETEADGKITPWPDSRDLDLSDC
UniProt P21554, whole entry: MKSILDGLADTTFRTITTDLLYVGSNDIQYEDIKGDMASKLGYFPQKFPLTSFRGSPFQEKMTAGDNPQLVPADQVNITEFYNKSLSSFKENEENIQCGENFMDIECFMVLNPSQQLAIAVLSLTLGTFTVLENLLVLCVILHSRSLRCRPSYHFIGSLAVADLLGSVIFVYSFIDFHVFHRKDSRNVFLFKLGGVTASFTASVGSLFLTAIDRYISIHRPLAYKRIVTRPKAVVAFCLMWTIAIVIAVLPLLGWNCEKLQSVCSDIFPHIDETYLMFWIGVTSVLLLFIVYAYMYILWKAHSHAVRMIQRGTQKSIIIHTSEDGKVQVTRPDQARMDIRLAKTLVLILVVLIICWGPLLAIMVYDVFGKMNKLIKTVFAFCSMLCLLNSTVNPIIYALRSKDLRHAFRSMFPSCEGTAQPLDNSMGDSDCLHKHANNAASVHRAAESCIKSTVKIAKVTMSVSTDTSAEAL

Key:
Assay in all cases: cell-based
[1] = target: T1, CB2 (Homo sapiens, UniProt P34972)
[2] = target: T1, CB2; remark: listed apart in the source
[3] = target: T2, hCB1 (Homo sapiens, UniProt P21554); parameters: host or cells: CHO-K1
Experimental: HitHunter cAMP assay: Inhibition of forskolin-stimulated cAMP was determined using the DiscoveRx HitHunter assay in hCB1R CHO-K1 cells. Cells (20,000 cells/well in low-volume 96 well plates) were incubated overnight in Opti-MEM (Invitrogen) containing 1% FBS at 37° C. and 5% CO2. Following this, Opti-MEM media was removed and replaced with cell assay buffer (DiscoveRx) and cells were co-treated at 37° C. with 10 μM forskolin and hCB1R ligands (0.10 nM-10 μM) for 30 min or 90 min cAMP antibody solution and cAMP working detection solutions were then added to cells according to the manufacturer's directions (DiscoveRx®) and cells were incubated for 60 min at room temperature. cAMP solution A was added according to the manufacturer's directions (DiscoveRx®) and cells were incubated for an additional 60 min at room temperature before chemiluminescence was measured on a Cytation 5 plate reader (top read, gain 200, integration time 10,000 ms).

[4] = target: T2, hCB1; parameters: host or cells: CHO-K1 PathHunter
Experimental: PathHunter CB1 β-Arrestin Assay: Chinese hamster ovary K1 (CHO-K1)-PathHunter hCB1 β-arrestin cells (DiscoveRx, Fremont, CA) were seeded at 5000 cells/well in 384-well plates 24 h before use and incubated at 37° C., 5% CO2. Compounds were dissolved in dimethyl sulfoxide (DMSO) and diluted in optimized cell culture (OCC) media. Agonist EC80 was determined directly from an agonist dose—response curve (data not shown). […] Five microliters of allosteric modulator or vehicle solution was added to each well at the appropriate concentrations and incubated for 30 min. Five microliters of agonist was then added to each well followed by a 90 min incubation. Fifteen microliters of detection reagent was then added followed by further 60 min incubation at room temperature. Chemiluminescence was measured on a standard luminescence plate reader as relative light units (RLU). Basal RLU was defined as zero. […] Data were analyzed using the fourparameter variable-slope and allosteric EC50 shift nonlinear regression equations in Prism 5.0 (GraphPad, San Diego, CA).

O=C(O)CCC(c1ccccc1)c1cn(-c2ccccc2)c2ccccc12 (stereo not drawn) [GAT1102, 4-Phenyl-4-(1-phenyl-1H-indol-3-yl)butanoic acid]
EC50 [1]: 271 nM | Emax ([1]; CB2, agonist mode, read-out: CB2 Agonist mode cAMP Emax): 81% | EC50 [2]: > 10000 nM | Emax ([2]; CB2, agonist mode, read-out: CB2 Agonist mode β-Arrestin Emax): 0% | EC50 ([3]; CB1 Agonist mode cAMP EC50, CB1, agonist mode): 356 nM | EC50 ([3]; CB1 PAM mode cAMP EC50, CB1, PAM mode): 419 nM | Emax ([3]; read-out: CB1 Agonist mode cAMP Emax, CB1, agonist mode): 89% | Emax ([3]; read-out: CB1 PAM mode cAMP Emax, CB1, PAM mode): 101% | EC50 [4]: > 10000 nM | EC50 ([4]; read-out: CB1 Agonist mode β-Arrestin EC50, CB1, agonist mode): > 10000 nM | Emax ([4]; read-out: CB1 Agonist mode β-Arrestin Emax): 0% | Emax ([4]; read-out: CB1 PAM mode β-Arrestin Emax): 0%

Like-named read-outs stand apart in the source and are kept apart here.
